## scFv variants of Ab-14 (heavy chain) against a SARS-CoV-2 spike peptide

All variants were tested on one target, the spike HR2 peptide PDVDLGDISGINAS (SARS-CoV-2).

The variants keep the light chain, the linker and the frameworks of Ab-14 (scFv order VH, a (GGGGS)3 linker, VL).
VH: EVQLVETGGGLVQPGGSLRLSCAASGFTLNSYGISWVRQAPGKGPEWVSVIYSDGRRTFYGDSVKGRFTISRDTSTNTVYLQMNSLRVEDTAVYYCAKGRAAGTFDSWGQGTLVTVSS
VL: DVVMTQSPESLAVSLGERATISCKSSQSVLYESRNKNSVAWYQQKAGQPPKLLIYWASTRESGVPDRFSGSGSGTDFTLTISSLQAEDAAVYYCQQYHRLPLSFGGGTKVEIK

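Phage display of a naive human antibody library on the peptide gave the parent. Library AAYL49 holds single substitutions and randomly drawn double and triple substitutions in the CDRs. In AlphaSeq, yeast of one mating type display the scFv and yeast of the other type display the target. After mating in shaken culture at 30 °C for 16 h, diploids were selected and their barcode pairs sequenced. A regression on co-assayed BCL2-family reference pairs converts the normalised counts of each replicate to an apparent Kd. Mating was done three times.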

Positions count from residue 1 of the parent VH; S53I puts I in place of S.
This list gathers variants with a substitution at S53 (VH, numbered from residue 1).
Numbers give log10(Kd / nM), so 0 is 1 nM and 3 is 1 µM. Smaller is tighter.
The mean shown is taken over the replicates in which the pair was detected.
An entry "ND" has no value in the source: the pair was not observed among the diploids in that replicate. This suggests poor binding but is not conclusive.

With S53I S63P F105V the result was 3.80, 5.33, 4.26 (mean 4.46). The variant S53M G55E T104Y gave ND, ND, ND. The variant S53H T58D A101H showed 3.75, 2.47, 2.48 (mean 2.90). With S53L F59I R100Q the result was ND, ND, ND. With Y52N S53M T104R the result was ND, 2.85, ND. For L29S S53R D106K, the assay gave ND, ND, ND. The variant I34V S35L S53T showed ND, 3.02, ND. The variant S53R G55P D106K showed ND, ND, ND. For S53A F59D A102T, the assay gave ND, ND, 3.10.

The variant I51F S53T D62F showed ND, ND, ND. For I34Y S53T A101N, the assay gave 3.53, ND, ND. With S53A R56L R100Q the result was 1.54, 1.55, 1.40 (mean 1.50). For F27W S53T, the assay gave 4.16, 3.43, ND (mean 3.79). With I34G S53T G99M the result was ND, 3.82, 3.58 (mean 3.70). With S35A S53E D62F the result was ND, ND, ND. With S53A Y60D S107Q the result was ND, 1.90, 2.21 (mean 2.05). The variant G33D S53N R57F showed ND, 3.32, ND. The variant T28P S53I R56A showed 2.37, ND, 3.63 (mean 3.00).

With S53E R56D S107G the result was ND, ND, 4.58. For S53V G61M, the assay gave 2.43, 2.46, 2.64 (mean 2.51). The variant V50M S53Q S63Q gave ND, 2.47, 4.97 (mean 3.72). With S53F R56P Y60T the result was ND, ND, ND. For G33P V50E S53V, the assay gave 3.26, ND, ND. The variant T28E S53P R100T gave 0.96, 1.11, 1.16 (mean 1.07). The variant G26L S53P F59P showed ND, ND, ND. The variant F27A S53P D62Q gave ND, 4.10, ND. For S31N S53P, the assay gave 1.22, 1.48, 1.29 (mean 1.33).

The variant S53L F59I G99R gave ND, 3.55, ND. For L29A I34T S53M, the assay gave 5.89, 4.78, ND (mean 5.34). The variant L29E S53F R56E gave ND, 4.37, ND. With I34W S53L K65C the result was ND, ND, ND. The variant T28W V50D S53N gave 3.00, ND, ND. The variant S53H G55E gave ND, ND, ND. The variant V50I S53D R56V showed 4.17, 5.01, ND (mean 4.59). With F27C S53C R100L the result was ND, 5.12, ND. With Y32L Y52W S53V the result was ND, 4.24, 4.65 (mean 4.45).

With G33R I51M S53I the result was ND, ND, ND. For I51Q S53E S107C, the assay gave 4.35, 5.40, ND (mean 4.88).

The closing 2 entries, repeated:

{"changes": "G33R I51M S53I", "replicates, log10 nM": "ND, ND, ND", "mean log10 Kd (nM)": "ND"}
{"changes": "I51Q S53E S107C", "replicates, log10 nM": "4.35, 5.40, ND", "mean log10 Kd (nM)": "4.88"}

Background: pairings of library AAYL49 with three empty control strains gave a value in 15% of cases (median 4.06, 5th percentile 2.83). Values in that range, when seen in few replicates, are hard to tell from nonspecific mating.

Data: MIT Lincoln Laboratory AlphaSeq set, Engelhart et al. 2022, doi:10.1038/s41597-022-01779-4, as distributed in FLAb.